Measurements reported in US4440771A, “2-Acetyl quinoline thiosemicarbazones useful in treatment of gonorrhea, malaria or bacterial infections” (The United States of America as represented by the …, priority 1982, dated 1984).

Test system: Staphylococcus aureus isolates
Test: Minimum inhibitory concentration, macro broth dilution, Staphylococcus aureus isolates (Test 1)
Format: cell-based
Details: 24 h
Experimental: Compounds were tested against five isolates of Staphylococcus aureus. The bacteria used were isolated from patients at the Walter Reed Army Medical Center, Washington, D.C. […] Each compound was dissolved in Dimethyl Sulfoxide (DMSO) (12.8 mg/ml) and then diluted with Mueller-Hinton broth to obtain the desired dilutions. Tubes containing the hightest quantities of DMSO with no compound present were run as controls.

For `CC(=NNC(=S)N1CCCC1)c1ccc2ccccc2n1` [Compound 3I, Pyrrolidine-1-thiocarboxylic acid 2-[1-(2-quinolyl)ethylidene]hydrazide], the MIC (Staphylococcus aureus isolate II) was 0.5 µg/mL (≈ 1.68 µM) and the MIC (Staphylococcus aureus isolate III) was 0.5 µg/mL (≈ 1.68 µM).

Converted amounts (≈) assume the structure as drawn.
